This data set concerns excised bovine nasal tissue (MTA, MTP, ITP regions). Kind of data set: Nanoparticle transport and uptake across excised bovine nasal tissue (Ussing chambers). The format is in vitro ADME. On the procedure:
Transport studies were conducted in bovine nasal tissue. Bovine nasal tissue was obtained from freshly slaughtered cattle, and different regions (MTA, MTP, ITP) were prepared as described in Example 13. Nanoparticles coupled to deslorelin or transferring via aldehyde sulfate moieties were prepared as described in Example 3. The nanoparticle size was measured using a Zeta Plus Analyzer (Brookhaven Instruments Limited, UK). Particle size was analyzed before and after ligand conjugation in deionized filtered water.
The tissues were exposed to 5 ml of assay buffer with either peptide conjugated or plain nanoparticles on the donor side (mucosal or serosal surface). Assay buffer (5 ml) without particles was exposed to the receiver side (serosal or mucosal surface). The buffers used were pre-equilibrated to 37° C. or 4° C. […]
Nanoparticle Uptake: At the end of 4 hr in the above transport studies, the tissues exposed (1.78 cm^2) to the nanoparticle suspension were cut and washed thrice using 1 ml of assay buffer at pH 5. […] The homogenates were then centrifuged and the supernatant was analyzed.
Nanoparticle Transport and Uptake: Competition with Free Ligand: Similar to the transport and uptake studies mentioned above, the competition study was carried out using the modified Ussing chambers. […] The supernatants were analyzed to determine nanoparticle uptake. […]

For the substance “Transferrin-AS: transferrin-aldehyde sulphate-conjugated polystyrene nanoparticles”, the “uptake, times higher than plain nanoparticles” value stood at 2.5 times.

The record behind these values is patent US8821943B2, “Methods and compositions for targeted delivery of therapeutic agents” (Board of Regents of the University of Nebraska, priority 2006, dated 2014).
